Laboratory results taken from patent US4652586A, “Selective beta-2 adrenergic antagonists for the treatment of glaucoma” (priority 1980, dated 1987).

What was measured:
[1] = target: rabbit heart isoproterenol-stimulated adenylate cyclase; assay: rabbit heart isoproterenol-stimulated adenylate cyclase; format: biochemical; conditions: Table III
[2] = target: heart adenylate cyclase; conditions: read-out: Adenylate Cyclase Ki, Heart (G); cited from earlier work
[3] = test system: rabbit ciliary process adenylate cyclase (beta2-adrenergic receptors); assay: rabbit ciliary process isoproterenol-stimulated adenylate cyclase; conditions: Table III; rabbit heart vs rabbit ciliary process; ±20%

Structure (SMILES)	Ki [1] [µM]	Ki [2] [µM]	Ki heart / Ki Ciliary Process = beta2/beta1 potency ratio [3]
CC(C)NCC(O)COc1ccc(CC(N)=O)cc1 (stereo not drawn) [Atenolol, atenolol]	4.1	4.1	–
CC(C)(C)NC[C@H](O)COc1nsnc1N1CCOCC1 [Timolol, timolol]	–	–	3.6
